Measurements from US6214581A, “Nucleic acids encoding a functional human purinoreceptor P2X3 and P2X6, and methods of production and use thereof” (Abbott Laboratories, priority 1998, dated 2001).

Target: T1, human P2X3 receptors (Homo sapiens, UniProt P56373)
T1 construct: expressed in transfected cells; host or cells: Xenopus laevis oocytes (nuclear injection of the P2X3 insert in pCDNA3.1)
T1 sequence (P56373 1-397): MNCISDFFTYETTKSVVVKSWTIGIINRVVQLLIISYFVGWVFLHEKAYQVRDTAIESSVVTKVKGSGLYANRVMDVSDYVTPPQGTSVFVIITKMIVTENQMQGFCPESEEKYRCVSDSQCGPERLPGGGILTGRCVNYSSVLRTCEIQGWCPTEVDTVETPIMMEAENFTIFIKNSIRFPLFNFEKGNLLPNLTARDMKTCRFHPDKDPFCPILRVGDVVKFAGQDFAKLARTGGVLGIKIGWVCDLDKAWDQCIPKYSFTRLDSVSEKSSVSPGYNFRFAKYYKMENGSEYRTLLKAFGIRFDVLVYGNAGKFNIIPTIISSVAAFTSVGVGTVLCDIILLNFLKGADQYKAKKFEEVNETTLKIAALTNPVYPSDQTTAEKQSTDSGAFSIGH
Experiment: Two-electrode voltage-clamp of Xenopus oocytes expressing recombinant human P2X3 receptor
Assay type: cell-based
Conditions: block of ATP (0.3 μM)-induced currents
Procedure: Responses were measured at a holding potential of -60 mV in modified Barth's solution containing 10 mM BaCl2 and lacking CaCl2 and MgCl2 (final pH 7.4). However, in some experiments, the cell potential was intentionally varied in order to determine the response current-voltage relationship. Agonist was applied briefly using a computer-controlled solenoid valve and a push/pull applicator positioned to within 200-400 μm from the oocyte. Responses were recorded by computer in synchrony with agonist application. Antagonists were included with agonist in the push/pull applicator and were applied to the bath by superfusion for at least 3 minutes before application of agonist. Responses were quantified by measuring the peak amplitude.
The clone was grown up and prepared in large scale using the QIAgen maxiprep DNA preparation system according to the manufacturer's instructions. T he DNA was ethanol precipitated and resuspended in TE buffer. […]
For functional anaysis of human P2X3 receptors, 10 ng of human P2X3 DNA prepared as described above were injected into the nucleus of Xenopus oocytes. […] The response to 10 μM ATP was then recorded.

Cc1nc(N=Nc2ccc(S(=O)(=O)O)cc2S(=O)(=O)O)c(COP(=O)(O)O)c(C=O)c1O [PPADS, pyridoxal-phosphate-6-azophenyl-2',4'-disulfonic acid]
IC50: 1000 nM
